For experiment [1], the target named is T1, GPR35 (Homo sapiens, UniProt Q9HC97). As to the kind of experiment: Tango β-arrestin translocation gene reporter assay in U2OS-GPR35-bla cells. It counts as cell-based. The settings on record: for β-arrestin translocation (Tango) signal (in words) / efficacy (Tango, normalized to maximal response of zaprinast): U2OS-GPR35-bla; for β-arrestin translocation (Tango) signal (in words): 2,3-DNP up to 1 mM, 3,4-DNP at 1 mM; for Efficacy Tango: maximal response normalized to the zaprinast maximal response; for EC50: read-out: Potency EC50, Tango; for efficacy (Tango, normalized to maximal response of zaprinast): zaprinast maximal response in same plate = 100%. For orientation: A reporter such as luciferase makes a cellular process visible.

The chains behind the UniProt entries cited, without tags or fusion partners. Where a name states a change or a piece, a line headed by the entry shows the natural chain unless it says otherwise.
UniProt Q9HC97: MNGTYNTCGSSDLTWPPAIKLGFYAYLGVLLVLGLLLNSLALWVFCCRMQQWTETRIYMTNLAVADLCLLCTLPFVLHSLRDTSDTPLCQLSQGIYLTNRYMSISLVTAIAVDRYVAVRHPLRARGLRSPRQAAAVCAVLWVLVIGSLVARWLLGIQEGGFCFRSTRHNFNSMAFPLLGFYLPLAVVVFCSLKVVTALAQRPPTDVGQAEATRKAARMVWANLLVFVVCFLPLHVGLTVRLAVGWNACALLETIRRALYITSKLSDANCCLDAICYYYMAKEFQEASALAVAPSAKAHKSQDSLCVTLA

The target in experiment [2] is T1, GPR35. As to the kind of experiment: DMR agonism assay in native HT-29 cells (Epic optical biosensor). The note with it: for Efficacy DMR: maximal DMR response in HT-29 (2,5-DNP: amplitude at 50 min); for EC50: HT-29 cells.
Experiment [3] addresses T1, GPR35. Description: DMR antagonist assay: ML-145 pretreatment, then agonist at fixed dose, HT-29 cells. The note with it: ML-145 at different doses 10 min before agonist at fixed dose.
[4] abbreviates: U2OS-GPR35-bla cells, β-arrestin translocation, mean ± s.d.
The mark [5] stands for this setting: read-out: Potency EC50, DMR, maximal DMR amplitudes within 15 min poststimulation (2,5-DNP: amplitudes at 50 min), mean ± s.d., n=4.

Structures are written as SMILES. Values joined by “and” are separate entries in the source; they are usually repeats but may differ in a detail not shown here. Equal values may be shown once. Bounds are passed on as bounds.

The EC50 is the concentration that produces a half-maximal response. In the case of `O=[N+]([O-])c1ccc(O)cc1[N+](=O)[O-]`, the “β-arrestin translocation (Tango) signal (in words)” value on GPR35 [1] is “little activity”. The “Efficacy Tango” value on GPR35 [1] is over 6 % zaprinast. For the same molecule, the EC50 on GPR35 [1] (setting [4]) is over 500 µM; on GPR35 [2] (setting [5]), 112000 nM. On GPR35 [2], the “Efficacy DMR” value came to 178 ± 12 pm. For the same molecule, the “inhibition of the agonist-induced DMR by ML-145 (in words)” value (“inhibition of the agonist-induced DMR” below) at GPR35 [3] is listed as “partially inhibited”.
For the molecule `O=[N+]([O-])c1cc(Cl)c(O)c([N+](=O)[O-])c1`, at GPR35 [1], the “efficacy (Tango, normalized to maximal response of zaprinast)” value is 26% and the “Efficacy Tango” value stood at 26 ± 2 % zaprinast. Further, the EC50 at GPR35 [1] (setting [4]) turned out to be 41.7 µM. Besides, the “Efficacy DMR” value on GPR35 [2] amounted to 217 ± 15 pm. Moreover, the EC50 at GPR35 [2] (setting [5]) stood at 5450 nM.
With `Cc1cc([N+](=O)[O-])c(O)c([N+](=O)[O-])c1`, on GPR35 [1], the “efficacy (Tango, normalized to maximal response of zaprinast)” value was found to be 83%. Besides, the “Efficacy Tango” value at GPR35 [1] came to 83 ± 5 % zaprinast. Besides, the values for the EC50 at GPR35 [1] (setting [4]) and on GPR35 [2] (setting [5]) were 36.4 µM and 5270 nM, respectively. The “Efficacy DMR” value on GPR35 [2] is 235 ± 13 pm.
Consider `O=[N+]([O-])c1cc(C(=C(Cl)Cl)c2cc([N+](=O)[O-])c(O)c([N+](=O)[O-])c2)cc([N+](=O)[O-])c1O`, for which, on GPR35 [1], the “efficacy (Tango, normalized to maximal response of zaprinast)” value was found to be 104% and the “Efficacy Tango” value is 104 ± 6 % zaprinast. In addition, the EC50 at GPR35 [1] (setting [4]) turned out to be 2.12 µM. In addition, at GPR35 [2], the “Efficacy DMR” value is given as 210 ± 11 pm. The EC50 at GPR35 [2] (read-out: EC50 (DMR), values printed in nM in the text) came to 6 nM.
For the molecule `CC(C)(c1cc([N+](=O)[O-])c(O)c([N+](=O)[O-])c1)c1cc([N+](=O)[O-])c(O)c([N+](=O)[O-])c1`, at GPR35 [1], the “efficacy (Tango, normalized to maximal response of zaprinast)” value was 72% and the “Efficacy Tango” value was determined as 72 ± 5 % zaprinast. Besides, the EC50 at GPR35 [1] (setting [4]) amounted to 29.2 µM. Also, the “Efficacy DMR” value on GPR35 [2] is reported as 195 ± 12 pm. Moreover, the EC50 at GPR35 [2] (setting [5]) was determined as 2350 nM.
On the same counts, the results for `Cc1cc([N+](=O)[O-])cc([N+](=O)[O-])c1O` are 37%, 37 ± 2 % zaprinast, 81.1 µM, 229 ± 14 pm and 6910 nM.
Turning to `O=[N+]([O-])c1ccc([N+](=O)[O-])c(O)c1`, on GPR35 [1], the “efficacy (Tango, normalized to maximal response of zaprinast)” value turned out to be 15% and the “Efficacy Tango” value came out at 15 ± 1 % zaprinast. The EC50 at GPR35 [1] (setting [4]) stood at 331 µM. For the same molecule, the “DMR signal in HT-29 cells (in words)” value on GPR35 [2] (agonism mode) is given as “slowly increased DMR signal”. Further, the “Efficacy DMR” value at GPR35 [2] was 269 ± 15 pm. Also, the EC50 on GPR35 [2] (setting [5]) was 52600 nM. For the same molecule, the “inhibition of the agonist-induced DMR” value on GPR35 [3] is listed as “partially inhibited”.
In the case of `O=[N+]([O-])c1cccc([N+](=O)[O-])c1O`, at GPR35 [1], the “efficacy (Tango, normalized to maximal response of zaprinast)” value stood at 34%. The “Efficacy Tango” value at GPR35 [1] came out at 34 ± 4 % zaprinast. Moreover, the EC50 at GPR35 [1] (setting [4]) was 76.6 µM and 76 µM; on GPR35 [2] (setting [5]), 18200 nM. Besides, the “Efficacy DMR” value at GPR35 [2] was 288 ± 12 pm.
For the molecule `O=[N+]([O-])c1cccc(O)c1[N+](=O)[O-]`, the “Potency EC50, Tango” value at GPR35 [1] (setting [4]) was “inactive”. Also, at GPR35 [1], the “β-arrestin translocation (Tango) signal (in words)” value is “inactive” and the “Efficacy Tango” value is “inactive”. On GPR35 [2], the “Efficacy DMR” value is given as 192 ± 13 pm. The EC50 at GPR35 [2] (setting [5]) was 58500 nM. Also, at GPR35 [3], the “inhibition of the agonist-induced DMR” value is “partially inhibited”.
As to `O=[N+]([O-])c1cc([N+](=O)[O-])c(Cl)c(Cl)c1O`, at GPR35 [1], the “efficacy (Tango, normalized to maximal response of zaprinast)” value came out at 32% and the “Efficacy Tango” value is recorded as 32 ± 4 % zaprinast. Moreover, the EC50 on GPR35 [1] (setting [4]) was determined as 24.2 µM. For the same molecule, the “Efficacy DMR” value on GPR35 [2] is reported as 195 ± 11 pm. Besides, on GPR35 [2] (setting [5]), the EC50 stood at 1390 nM.

Source of the values: US20130316985A1, “GPR35 Ligands And Uses Thereof” (CORNING INCORPORATED, priority 2012, published 2013).
